This assay deals with PDAC mesenchymal cells. Further details: species or system C57BL/6J mice. Particulars: mouse, in vivo.

The values that follow come from patent US12622906B2, “Treatment and prognosis of pancreatic cancer” (Cambridge Enterprise Limited, priority 2019, dated 2026).

SMILES strings stand for the structures. “Also recorded” adds a separate entry of the source.

Consider `C[C@@H]1CN(Cc2ccc(F)cc2)CCN1C(=O)COc1ccc(Cl)cc1NC(N)=O` [BX-471, (2R)-1-[[2-[(Aminocarbonyl)amino]-4-chlorophenoxy]acetyl]-4-[(4-fluorophenyl)methyl]-2-methylpiperazine], for which the primary tumour growth result is “significant inhibition to the growth of pancreatic cancer cells; also recorded: Reduced primary tumour growth”.
